# Experiments:
# CNS-1 glioma cells [1] = test: Proliferation (XTT) of CNS-1 glioma cells; type: cell-based, rat; conditions: CNS-1 cells
# Method: Several peptide moieties (Table 1) according to the present invention were synthesized. Proliferation was measured, by means of XTT, in C6 and CNS-1 glioma cell-lines (FIGS. 8A and 8B, respectively). In C6 cells, proliferation was measured before (black bar) and after cells were treated with the PAR-1 antagonist SCH79797 at various doses ranging from 10 nM to 10 μM (grey bars; FIG. 8A).
# In another set of experiments, CNS-1 glioma cell-line was treated with increased doses of TLCK (125 nM to 14 mM), for 48 hours (FIG. 9; grey bars). Proliferation was measured by means of XTT in comparison to non-treated cells (control; black bar).
# Initially, CNS-1 glioma cells were treated with increased concentrations of two peptide conjugates: a short conjugate of the formula tosyl-DPR-CK (comprising 3 amino acids, 3AA) or a long conjugate of the formula tosyl-NATLDPR-CK (comprising 7 amino acids, 7AA; SEQ ID NO: 4) in concentrations of 100 pM, 1 nM and 10 nM, for 48 hours (FIG. 10). FIG. 10 provides the results of an XTT assay used for assessing cell proliferation.
# The effect of the peptide conjugate alone, or in combination with PAR-1 antagonist, SCH79797, on cell proliferation was determined in comparison to untreated cells or cells treated with PAR-1 antagonist (FIG. 13).
# CNS-1 glioma cells [2] = conditions: CNS-1 cells, four hours after treatment
# Method: The thrombin-like activity of CNS-1 cells was initially measured in control cells and in cells treated with (i) the short peptide conjugate (tosyl-DPR-CK, corresponding to a conjugate that includes the peptide termed 3AA) or (ii) the long conjugate (tosyl-NATLDPR-CK, corresponding to a conjugate that includes the peptide termed 7AA (SEQ ID No. 4)) at high ([…]) and low (100 nM) concentrations (FIG. 16).
smiles,measurement,setting,value
"N=C(N)c1ccc(CC(NC(=O)CNS(=O)(=O)c2ccc3ccccc3c2)C(=O)N2CCCCC2)cc1 (racemic) [NAPAP, Na-(2-naphthyl-sulphonyl-glycyl)-DL-p-amidinophenylalanyl-piperidine]","proliferation, administered alone","CNS-1 glioma cells [1]; XTT, 1 μM",did not inhibit proliferation
same,"proliferation-inhibition, combined treatment with the PAR-1 antagonist",CNS-1 glioma cells [1]; compared with PAR-1 antagonist (1 μM) alone,significantly increased said inhibitory effect
same,thrombin-like activity,CNS-1 glioma cells [2],inhibited

# From patent publication US10028999B2, “PAR-1 based therapeutic conjugates and uses thereof” (TEL HASHOMER MEDICAL RESEARCH INFRASTRUCTURE AND SERVICES …, priority 2014, dated 2018)
